Measurements: PubChem BioAssay AID720658 (The Scripps Research Institute Molecular Screening Center, 2013)
This is a selection; strong and weak results do not stand in their true shares. The source made the active and inactive calls.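 The calls were made as follows: active = mean inhibition across replicates above the hit cutoff set in the primary screen (cut at about 30% in these data); inactive = the rest.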

Amino acid sequences for entries named in this document (tags omitted). A change or cut given only in a name is not applied to a line headed by its entry.
UniProt Q8VD66: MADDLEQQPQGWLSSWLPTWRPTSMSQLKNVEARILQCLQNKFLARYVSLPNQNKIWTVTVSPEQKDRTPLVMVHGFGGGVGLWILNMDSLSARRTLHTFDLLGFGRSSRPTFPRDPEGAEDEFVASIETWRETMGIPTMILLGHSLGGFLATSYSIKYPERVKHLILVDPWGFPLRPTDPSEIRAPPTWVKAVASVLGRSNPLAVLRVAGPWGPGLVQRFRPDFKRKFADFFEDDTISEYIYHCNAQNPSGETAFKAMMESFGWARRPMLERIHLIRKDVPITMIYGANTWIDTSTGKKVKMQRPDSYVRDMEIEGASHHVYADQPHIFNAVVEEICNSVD

Target: (Lyso)-N-acylphosphatidylethanolamine lipase (Mus musculus) (UniProt Q8VD66)
Experiment: ABHD4 inhibitors, retest, confirmation, biochemical, fluorescence polarization, mouse (AID 720658);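 also: 0% = wild-type ABHD4 with DMSO and 100% = catalytically dead S159A mutant with DMSO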
Details: purified mABHD4, FP-Rh probe fluorescence polarization; at 8.92 µM; hits give high values
Procedure, shortened: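 Also added: Rhodamine-tagged fluorophosphonate probe FP-Rh / Assay system: mouse wild-type ABHD4 enzyme / Evaluation: % inhibition relative to DMSO and S159A mutant controls / Medium: HEPES pH 7.0 buffer with NaCl and Pluronic F-127 / Detection: fluorescence polarization at 525 nm excitation, 598 nm emission / Timing: 45 min compound-enzyme pre-incubation, then 60 min probe incubation, 25 °C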

| SMILES | inhibition |
| --- | --- |
| Nc1cccc2c([As](=O)(O)O)cccc12 | inactive: 27.4% |
| O=[N+]([O-])c1cc([N+](=O)[O-])c(CCNc2ccccc2)c([N+](=O)[O-])c1 | inactive: 22.3% |
